In US20130230562A1:

Target: caspase-3 (NCBI accession no: NP-004337.2), human, purchased from R&D Systems (human) (UniProt P42574)
Assay: cell-based or functional assay

fluorescence signal on reaction with caspase-3, relative to the single peptide probe: 20 to 50 times
Substance: ApoHsp (cage protein formed by the fusion protein of Hsp, DEVD motif and histidine polymer, labelled with Cy5.5 and BHQ3) (from UniProt Q57733 1-147)
